Paper PMC12056073
Each block holds one binder with its values, some of them ahead of it.

Biological target: TRAIL-R2-moFc, O14763
Assay: ELISA; TRAIL-R2-moFc (DR5-moFc) coated at 3 µg/ml (0.3 µg/well) overnight at 4 °C; fusion proteins titrated 1:4 from 100 nM in MPBS, 1 h, RT; detected with HRP-conjugated anti-human Fc antibody; n = 3

EC50: 0.493 nM
B1: Fc-scTRAIL (0 + 2), P50591 118-281; P50591 118-281; P50591 118-281 (Fc fusion)
chain: GPQRVAAHITGTRGRSNTLSSPNSKNEKALGRKINSWESSRSGHSFLSNLHLRNGELVIHEKGFYYIYSQTYFRFQEEIKENTKNDKQMVQYIYKYTSYPDPILLMKSARNSCWSKDAEYGLYSIYQGGIFELKENDRIFVSVTNEHLIDMDHEASFFGAFLVGGPQRVAAHITGTRGRSNTLSSPNSKNEKALGRKINSWESSRSGHSFLSNLHLRNGELVIHEKGFYYIYSQTYFRFQEEIKENTKNDKQMVQYIYKYTSYPDPILLMKSARNSCWSKDAEYGLYSIYQGGIFELKENDRIFVSVTNEHLIDMDHEASFFGAFLVGGPQRVAAHITGTRGRSNTLSSPNSKNEKALGRKINSWESSRSGHSFLSNLHLRNGELVIHEKGFYYIYSQTYFRFQEEIKENTKNDKQMVQYIYKYTSYPDPILLMKSARNSCWSKDAEYGLYSIYQGGIFELKENDRIFVSVTNEHLIDMDHEASFFGAFLVG
modifications: not checked

EC50: 0.383 nM
B2: scTRAIL-Fc (0 + 2), P50591 118-281; P50591 118-281; P50591 118-281 (Fc fusion)
chain: B1 chain
modifications: not checked
